Reference: PubChem BioAssay AID828 (The Scripps Research Institute Molecular Screening Center, 2007)
Only a part is listed here, and it is no random draw. Activity calls are given as the source filed them. Rule as the data show it: active = inhibition above about 27%; inactive = the rest.

Amino acid sequences for entries named in this document (tags omitted).
UniProt O43603, whole entry: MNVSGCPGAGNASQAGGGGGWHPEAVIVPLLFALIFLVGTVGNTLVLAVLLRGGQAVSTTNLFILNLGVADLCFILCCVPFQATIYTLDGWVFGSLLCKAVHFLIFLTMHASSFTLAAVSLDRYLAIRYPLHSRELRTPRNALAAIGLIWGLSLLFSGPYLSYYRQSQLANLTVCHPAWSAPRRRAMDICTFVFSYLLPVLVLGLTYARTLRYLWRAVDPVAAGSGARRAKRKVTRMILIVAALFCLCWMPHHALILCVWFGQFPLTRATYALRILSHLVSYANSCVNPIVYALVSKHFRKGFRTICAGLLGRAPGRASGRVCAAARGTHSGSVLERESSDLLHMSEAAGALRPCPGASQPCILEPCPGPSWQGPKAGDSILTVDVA

Target: Galanin receptor type 2 (Homo sapiens) (UniProt O43603)
Test: blockers of human galanin receptor 2 – cell-based, primary screen (AID 828);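 also: cells stimulated with galanin 1-16 at roughly its EC80; 0% = agonist challenge control and 100% = basal control without agonist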
Settings: GALR2-expressing cells, antagonist mode; at 4 µM; hits give high values

SMILES | inhibition
Cc1nc2ccc3ccccc3c2s1.O=[N+]([O-])c1cc([N+](=O)[O-])c(O)c([N+](=O)[O-])c1 | inactive: -1.24%
COc1ccccc1OP(C)(=O)Nc1c(C)cccc1C (stereo not given) | inactive: -4.44%
CN1CCCCC1COC(=O)C1(O)c2ccccc2CCc2ccccc21 (stereo not given) | inactive: 3.1%
CP(=O)(Nc1ccc(SC(F)(F)F)cc1)Oc1ccccc1 (stereo not given) | inactive: 6.59%
CC1=NCCc2c1[nH]c1ccccc21.O=[N+]([O-])c1cc([N+](=O)[O-])c(O)c([N+](=O)[O-])c1 | inactive: 13.5%
Cc1cc(C)cc(OP(C)(=O)Nc2ccc(C)cc2C)c1 (stereo not given) | inactive: -4.69%
CCOC(=O)c1ccc(NP(C)(=O)Oc2cc(C)cc(C)c2)cc1 (stereo not given) | inactive: -5.17%
Cc1cc(C)cc(OP(C)(=O)Nc2ccccn2)c1 (stereo not given) | inactive: 19.8%
Cc1ccc(C)c(NP(C)(=O)Oc2ccccc2)c1 (stereo not given) | inactive: 11.5%
CC(C)(C)c1ccc(OP(C)(=O)Nc2ccc(SC(F)(F)F)cc2)cc1 (stereo not given) | inactive: 9.29%
CCOC(=O)c1ccc(NP(C)(=O)Oc2ccccc2)cc1 (stereo not given) | inactive: 0.06%
COc1ccccc1OP(C)(=O)Nc1ccc(C)cc1 (stereo not given) | inactive: -3.44%
Cc1ccc(NP(C)(=O)Oc2ccccc2)c(C)c1 (stereo not given) | inactive: 11.1%
COc1ccc(OP(C)(=O)Nc2cccc(F)c2)cc1 (stereo not given) | inactive: 17.6%
CP(=S)(Nn1cnnc1)Oc1ccccc1 (stereo not given) | inactive: -19.9%
CP(=O)(Nc1ccccc1Br)Oc1ccccc1 (stereo not given) | inactive: -0.67%
Cc1cccc(C)c1OP(C)(=O)Nc1ccc(SC(F)(F)F)cc1 (stereo not given) | inactive: -13.1%
CP(=O)(NC(=O)Nc1ccccc1)Oc1ccccc1 (stereo not given) | inactive: 1.16%
Cc1cc(C)cc(OP(C)(=O)Nc2ccc(SC(F)(F)F)cc2)c1 (stereo not given) | inactive: -14.6%
CCOP(C)(=S)SCC(=O)NC(C)C(=O)O (stereo not given) | inactive: -2.8%
CCOC(=O)c1ccc(NP(C)(=O)Oc2ccc(OC)cc2)cc1 (stereo not given) | inactive: -1.36%
CP(=O)(Nc1ccccn1)Oc1ccc(Cl)cc1 (stereo not given) | inactive: -16.9%
CCN(CC)CC(O)COC(=O)C(O)(c1ccccc1)C1CCCCC1 (stereo not given) | inactive: 2.19%
COc1ccc(OP(C)(=O)Nc2ccc(Br)cc2)cc1 (stereo not given) | inactive: -8.27%
CP(=O)(Oc1ccccc1)N1CCOC1=O (stereo not given) | inactive: -0.54%

SMILES | inhibition
COc1ccccc1OP(C)(=O)Nc1c(C)n(C)n(-c2ccccc2)c1=O (stereo not given) | inactive: 0.32%
CP(=O)(Nc1ccc(Cl)cc1)Oc1ccc(F)cc1 (stereo not given) | inactive: 10.5%
CC(C)(C)c1ccc(OP(C)(=O)O)cc1 | inactive: 9.71%
CP(=O)(OC12CC3CC(CC(C3)C1)C2)OC12CC3CC(CC(C3)C1)C2 | inactive: -6.71%
CCOC(=O)c1ccc(NP(C)(=O)Oc2ccc(Cl)cc2)cc1 (stereo not given) | inactive: -7.01%
COc1ccc(OP(C)(=O)Nc2ccccc2Br)cc1 (stereo not given) | inactive: 2.01%
COc1ccccc1OP(C)(=O)Nc1ccc(C)c(C)c1 (stereo not given) | inactive: 12.1%
Cc1nc2ccc3ccccc3c2o1.O=[N+]([O-])c1cc([N+](=O)[O-])c(O)c([N+](=O)[O-])c1 | inactive: 1.27%
CN(C)CCOC(=O)C(O)(c1ccccc1)C1CCCC1 (stereo not given) | inactive: -4.28%
COc1ccc(OP(C)(=O)Nc2ccccn2)cc1 (stereo not given) | inactive: -11%
Cc1c(NP(C)(=O)Oc2ccc(C(C)C)cc2)c(=O)n(-c2ccccc2)n1C (stereo not given) | inactive: 0.07%
CCc1ccc(OP(C)(=O)O)cc1 | inactive: 4.75%
CP(=O)(Nc1ccccn1)Oc1ccccc1 (stereo not given) | inactive: -5.32%
COc1ccccc1OP(C)(=O)Nc1ccc(C)cc1C (stereo not given) | inactive: 4.34%
CC(C)c1ccc(OP(C)(=O)Nc2ccc(SC(F)(F)F)cc2)cc1 (stereo not given) | inactive: -8.63%
CP(=O)(Nc1ccccc1F)Oc1ccccc1 (stereo not given) | inactive: 9.26%
O=C(OCCN1CCN(CCOCc2ccccc2)CC1)C(O)(c1ccccc1)c1ccccc1 | inactive: -7.62%
CCOC(=O)c1ccc(NP(C)(=O)Oc2ccc(F)cc2)cc1 (stereo not given) | inactive: -6.78%
CCN(CC)CCCOC(=O)C(O)(c1ccccc1)C1CCCCC1 (stereo not given) | inactive: 12.4%
CP(=O)(Nc1ccccc1)Oc1ccc(F)cc1 (stereo not given) | inactive: 5.5%
COc1ccc(OP(C)(=O)Nc2cccc(Br)c2)cc1 (stereo not given) | inactive: -3.73%
CN(C)CCOC(=O)C(O)(c1ccccc1)C1CCCCC1 (stereo not given) | inactive: 4.59%
CCOP(C)(=S)SCC(=O)NC(C)(CC)C(=O)O (stereo not given) | inactive: -0.45%
CP(=O)(Nc1ccc2c(c1)OCCO2)Oc1ccccc1 (stereo not given) | inactive: 15.9%
Cc1ccccc1NP(C)(=O)Nc1ccccc1C | inactive: 4.49%
